# Assay results published in ChEMBL document CHEMBL5356990, “Overview of CFTR activators and their recent studies for dry eye disease: a review” (RSC Med Chem, 2023).
# Chains of the proteins cited; added tags and fusions are not shown. A line that says so, or that is headed by a name, gives the form on record, which may keep a tag or linker.
# UniProt P13569, whole entry, looked up: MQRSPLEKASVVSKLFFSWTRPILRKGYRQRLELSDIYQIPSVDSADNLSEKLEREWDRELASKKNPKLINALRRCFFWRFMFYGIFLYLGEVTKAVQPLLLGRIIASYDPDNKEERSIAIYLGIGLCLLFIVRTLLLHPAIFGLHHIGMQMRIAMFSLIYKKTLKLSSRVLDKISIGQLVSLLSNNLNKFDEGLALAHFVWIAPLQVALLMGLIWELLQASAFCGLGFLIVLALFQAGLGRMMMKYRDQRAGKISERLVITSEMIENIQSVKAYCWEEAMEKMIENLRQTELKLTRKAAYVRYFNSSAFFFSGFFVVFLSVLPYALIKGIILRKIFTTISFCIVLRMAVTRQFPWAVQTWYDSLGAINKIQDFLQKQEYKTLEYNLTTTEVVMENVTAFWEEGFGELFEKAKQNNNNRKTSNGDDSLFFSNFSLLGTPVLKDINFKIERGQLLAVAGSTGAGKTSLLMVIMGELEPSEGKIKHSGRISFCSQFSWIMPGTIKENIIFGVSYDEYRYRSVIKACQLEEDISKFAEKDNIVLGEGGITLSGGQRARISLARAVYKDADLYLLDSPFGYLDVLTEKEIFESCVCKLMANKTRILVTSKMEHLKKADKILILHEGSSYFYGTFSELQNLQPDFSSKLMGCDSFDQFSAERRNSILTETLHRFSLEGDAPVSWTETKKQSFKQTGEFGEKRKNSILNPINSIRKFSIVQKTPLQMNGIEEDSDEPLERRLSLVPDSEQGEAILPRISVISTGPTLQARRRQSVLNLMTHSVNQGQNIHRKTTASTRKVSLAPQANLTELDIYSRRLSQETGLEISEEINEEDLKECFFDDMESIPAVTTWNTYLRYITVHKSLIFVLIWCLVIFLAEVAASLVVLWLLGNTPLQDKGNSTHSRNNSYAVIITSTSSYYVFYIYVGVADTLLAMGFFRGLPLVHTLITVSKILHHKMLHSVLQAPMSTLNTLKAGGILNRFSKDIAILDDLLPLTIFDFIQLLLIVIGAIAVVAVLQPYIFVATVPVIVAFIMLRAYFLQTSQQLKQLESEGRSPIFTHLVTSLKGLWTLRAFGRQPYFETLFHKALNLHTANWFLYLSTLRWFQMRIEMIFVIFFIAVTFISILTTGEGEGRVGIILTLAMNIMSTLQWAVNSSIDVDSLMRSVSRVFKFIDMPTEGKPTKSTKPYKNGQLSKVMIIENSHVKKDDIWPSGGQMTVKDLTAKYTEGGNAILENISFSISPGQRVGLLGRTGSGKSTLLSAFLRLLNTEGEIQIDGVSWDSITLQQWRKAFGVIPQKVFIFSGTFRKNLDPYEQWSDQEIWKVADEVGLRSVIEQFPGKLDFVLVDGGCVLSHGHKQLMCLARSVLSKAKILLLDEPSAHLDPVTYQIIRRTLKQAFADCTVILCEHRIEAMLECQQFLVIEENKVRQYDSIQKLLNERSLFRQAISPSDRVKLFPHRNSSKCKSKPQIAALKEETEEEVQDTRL
# UniProt P13569, as listed by the source: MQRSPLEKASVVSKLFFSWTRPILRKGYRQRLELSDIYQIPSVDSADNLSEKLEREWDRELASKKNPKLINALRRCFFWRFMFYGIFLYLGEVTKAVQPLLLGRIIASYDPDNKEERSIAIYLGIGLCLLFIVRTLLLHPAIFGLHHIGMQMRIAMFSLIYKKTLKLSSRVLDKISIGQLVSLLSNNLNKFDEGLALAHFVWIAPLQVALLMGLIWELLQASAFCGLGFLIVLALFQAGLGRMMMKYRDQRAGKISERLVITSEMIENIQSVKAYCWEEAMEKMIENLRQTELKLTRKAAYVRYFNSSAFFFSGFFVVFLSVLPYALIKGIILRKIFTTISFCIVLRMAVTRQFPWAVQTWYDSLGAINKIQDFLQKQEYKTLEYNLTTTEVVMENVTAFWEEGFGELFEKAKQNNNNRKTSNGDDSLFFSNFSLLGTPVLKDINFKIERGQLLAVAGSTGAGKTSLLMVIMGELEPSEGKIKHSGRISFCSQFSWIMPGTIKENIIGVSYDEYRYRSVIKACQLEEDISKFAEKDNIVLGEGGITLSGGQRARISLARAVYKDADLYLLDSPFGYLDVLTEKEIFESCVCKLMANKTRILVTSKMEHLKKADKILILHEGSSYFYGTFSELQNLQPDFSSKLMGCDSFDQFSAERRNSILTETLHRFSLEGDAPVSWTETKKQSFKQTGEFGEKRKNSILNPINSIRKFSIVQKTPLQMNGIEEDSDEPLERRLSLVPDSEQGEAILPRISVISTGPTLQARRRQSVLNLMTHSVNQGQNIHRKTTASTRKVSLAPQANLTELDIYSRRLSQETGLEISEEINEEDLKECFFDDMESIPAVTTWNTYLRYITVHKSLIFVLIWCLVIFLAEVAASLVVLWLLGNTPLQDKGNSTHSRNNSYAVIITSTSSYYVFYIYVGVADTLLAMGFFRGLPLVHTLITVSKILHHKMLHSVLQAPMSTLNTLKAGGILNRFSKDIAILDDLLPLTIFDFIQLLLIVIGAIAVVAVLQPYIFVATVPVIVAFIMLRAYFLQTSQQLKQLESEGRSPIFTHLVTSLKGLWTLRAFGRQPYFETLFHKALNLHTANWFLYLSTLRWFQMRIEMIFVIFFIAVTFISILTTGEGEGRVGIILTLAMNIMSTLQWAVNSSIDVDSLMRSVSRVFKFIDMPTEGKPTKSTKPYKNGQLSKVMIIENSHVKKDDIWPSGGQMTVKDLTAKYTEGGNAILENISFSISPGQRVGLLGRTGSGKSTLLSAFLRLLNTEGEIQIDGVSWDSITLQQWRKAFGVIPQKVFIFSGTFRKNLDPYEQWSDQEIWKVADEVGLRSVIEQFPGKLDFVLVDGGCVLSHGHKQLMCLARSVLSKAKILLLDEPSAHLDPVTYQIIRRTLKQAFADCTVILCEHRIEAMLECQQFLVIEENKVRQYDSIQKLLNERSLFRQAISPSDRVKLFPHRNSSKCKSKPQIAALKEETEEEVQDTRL
# Legend:
# Conditions in all cases: filed as opener
# [1] = target: T1, Cystic fibrosis transmembrane conductance regulator (Homo sapiens, UniProt P13569); test: Activation of wildtype CFTR chloride channel (unknown origin) expressed in CHO cells; format: cell-based
# [2] = target: T1, Cystic fibrosis transmembrane conductance regulator; test: Activation of wildtype CFTR chloride channel (unknown origin) expressed in human Calu-3 cells; format: cell-based
# [3] = test system: Cystic fibrosis transmembrane conductance regulator (Homo sapiens), P13569 [F508del]; test: Activation of CFTR F508del mutant (unknown origin)
structure (smiles),measurement,setting,value
CCCCc1c(-c2ccc(O)cc2)[nH]c2nccnc12,Activity,[1],140 nM
same,Activity,[2],140 nM
same,Activity,[3],111 nM
